# Experimental data from patent US20100098657A1, “Method of Treating Cancer with Immunomodulatory Compounds and IgG” (priority 2007, published 2010).
# Tested on: Fas-L
# Test: Fas-L expression on CD56+ NK cells (flow cytometry)
# Assay type: cell-based, human
# Conditions: IL-2 10 ng/mL with immobilized IgG
# Method: Cytometry was undertaken on 50 μL samples containing 1×10^6 cells/mL in washing buffer, 2% FBS with 0.1% NaN3 in PBS. Fluorochrome-conjugated antibodies, unconjugated antibodies, and isotype control mAb were obtained from PharMingen (San Diego, Calif.). The cells were stained with anti-CD56-PE, anti-FasL-FITC or isotype control mAb (1 μg/10^6 cells), and analyzed by flow cytometry according to the manufacturer's instructions.
substance,measurement,value
IL-2: cytokine interleukin-2 (R&D Systems),NK cell Fas-L expression,comparable to lenalidomide treatment
